“And” between values parts separate entries of the source, which are not always exact repeats. Equal values may be shown once.
Biological target: DPPIV from porcine kidney (Sus scrofa, UniProt P22411)
Assay: DPP IV inhibition in vitro
Type: biochemical
Conditions: DPP4-IC50 value, tested 0.01-100 µg/mL

Sequences of proteins named here, by UniProt entry; tags and fusion partners are left off. A change or cut given only in a name is not applied to a line headed by its entry.
UniProt P22411: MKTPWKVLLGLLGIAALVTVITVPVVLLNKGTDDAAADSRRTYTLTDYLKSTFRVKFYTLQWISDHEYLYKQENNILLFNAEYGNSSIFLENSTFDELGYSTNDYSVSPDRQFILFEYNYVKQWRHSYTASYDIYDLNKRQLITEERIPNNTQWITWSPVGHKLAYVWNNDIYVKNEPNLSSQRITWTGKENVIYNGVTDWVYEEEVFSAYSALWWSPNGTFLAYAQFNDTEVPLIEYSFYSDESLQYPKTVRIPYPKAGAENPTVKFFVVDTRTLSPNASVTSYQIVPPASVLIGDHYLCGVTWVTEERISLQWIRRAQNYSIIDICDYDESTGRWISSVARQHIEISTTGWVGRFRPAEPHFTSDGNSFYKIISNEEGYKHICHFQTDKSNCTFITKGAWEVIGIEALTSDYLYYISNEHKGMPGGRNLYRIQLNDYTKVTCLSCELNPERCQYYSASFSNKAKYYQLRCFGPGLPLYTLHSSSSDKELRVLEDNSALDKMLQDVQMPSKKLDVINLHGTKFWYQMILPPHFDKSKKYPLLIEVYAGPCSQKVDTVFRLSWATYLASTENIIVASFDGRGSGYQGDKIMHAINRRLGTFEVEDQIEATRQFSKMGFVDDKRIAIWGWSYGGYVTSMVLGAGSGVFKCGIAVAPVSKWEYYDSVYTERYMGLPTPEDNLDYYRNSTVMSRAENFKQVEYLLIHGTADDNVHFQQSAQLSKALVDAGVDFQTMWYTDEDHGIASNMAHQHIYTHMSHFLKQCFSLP

IC50: 5.14 µM and 5.15 µM
SMILES: CC[C@H](C)[C@H](N)C(=O)N1CCC[C@H]1C(=O)N[C@H](C(=O)O)[C@@H](C)CC [Diprotin-A, Ile-Pro-Ile]
